Data on 7 compounds can be found in patent publication US6610824B2 (Amylin Pharmaceuticals, Inc., priority 1991, dated 2003).

Molecules are shown by their SMILES.

This assay deals with T1, amylin receptors (Rattus norvegicus, UniProt P32214).
T1 construct: This basal forebrain tissue, containing the nucleus accumbens and surrounding regions, was weighed and homogenized; from tissue; host or cells: rat basal forebrain (nucleus accumbens and surrounding regions) membranes
T1 sequence (P32214 25-516): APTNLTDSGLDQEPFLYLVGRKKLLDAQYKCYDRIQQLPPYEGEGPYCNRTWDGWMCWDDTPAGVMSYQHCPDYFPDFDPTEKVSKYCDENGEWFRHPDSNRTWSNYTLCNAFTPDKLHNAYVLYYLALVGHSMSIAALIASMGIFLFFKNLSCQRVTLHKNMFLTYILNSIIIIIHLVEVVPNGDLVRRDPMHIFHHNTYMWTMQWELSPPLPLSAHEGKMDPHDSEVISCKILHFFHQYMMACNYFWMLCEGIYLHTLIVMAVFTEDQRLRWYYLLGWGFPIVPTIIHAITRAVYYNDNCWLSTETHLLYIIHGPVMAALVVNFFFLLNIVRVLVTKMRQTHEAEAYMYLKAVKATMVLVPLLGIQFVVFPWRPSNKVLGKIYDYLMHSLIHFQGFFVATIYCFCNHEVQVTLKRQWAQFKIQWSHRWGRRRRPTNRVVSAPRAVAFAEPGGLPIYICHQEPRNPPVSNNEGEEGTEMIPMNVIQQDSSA
T1 sequence (Q9JJ74 27-148 partner): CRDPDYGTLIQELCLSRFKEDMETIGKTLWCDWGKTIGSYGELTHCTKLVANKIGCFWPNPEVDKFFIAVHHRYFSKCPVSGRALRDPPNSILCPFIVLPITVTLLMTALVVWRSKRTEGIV
As to the kind of experiment: Receptor binding assay (125I-rat amylin competition, rat basal forebrain membranes). The settings on record: competition with 125I-rat amylin at 12-16 pM. An excerpt: Unlabeled peptides were obtained from BACHEM Inc. (Torrance, Calif.) and Peninsula Laboratories (Belmont, Calif.).
Male Sprague-Dawley rats (200-250) grams were sacrificed by decapitation. Brains were removed to cold phosphate-buffered saline (PBS). From the ventral surface, cuts were made rostral to the hypothalamus, bounded laterally by the olfactory tracts and extending at a 45Ε angle medially from these tracts. This basal forebrain tissue, containing the nucleus accumbens and surrounding regions, was weighed and homogenized in ice-cold 20 mM HEPES buffer (20 mM HEPES acid, pH adjusted to 7.4 with NaOH at 23ΕC). […] The final membrane pellet was resuspended in 20 mM HEPES buffer containing 0.2 mM phenylmethylsulfonyl fluoride (PMSF).
Solutions were incubated for 60 minutes at 2ΕC. […] Filters were washed immediately before filtration with 5 ml cold PBS, and immediately after filtration with 15 ml cold PBS.

As usually defined, the IC50 is the point on the concentration scale where inhibition reaches its midpoint.

The compound `CC[C@H](C)[C@H](NC(=O)[C@H](C)NC(=O)CNC(=O)[C@H](Cc1ccccc1)NC(=O)[C@H](CC(N)=O)NC(=O)[C@H](CC(N)=O)NC(=O)[C@H](CO)NC(=O)[C@H](CO)NC(=O)[C@H](Cc1c[nH]cn1)NC(=O)[C@@H](NC(=O)[C@H](CC(C)C)NC(=O)[C@H](Cc1ccccc1)NC(=O)[C@H](CC(N)=O)NC(=O)[C@H](C)NC(=O)[C@H](CC(C)C)NC(=O)[C@H](CCCNC(=N)N)NC(=O)[C@H](CCC(N)=O)NC(=O)[C@@H](NC(=O)[C@H](C)NC(=O)[C@@H]1CSSC[C@H](NC(=O)[C@H](C)N)C(=O)N[C@@H](CC(N)=O)C(=O)N[C@@H]([C@@H](C)O)C(=O)N[C@@H](C)C(=O)N[C@@H]([C@@H](C)O)C(=O)N1)[C@@H](C)O)C(C)C)C(=O)N[C@@H](CC(C)C)C(=O)N[C@@H](CO)C(=O)N[C@@H](CO)C(=O)N[C@H](C(=O)N[C@@H](CC(N)=O)C(=O)N[C@H](C(=O)NCC(=O)N[C@@H](CO)C(=O)N[C@@H](CC(N)=O)C(=O)N[C@H](C(=O)N[C@@H](Cc1ccc(O)cc1)C(N)=O)[C@@H](C)O)C(C)C)[C@@H](C)O` [Example 5, ^1Ala-h-Amylin] gave an IC50 of 0.148 nM.

Regarding `CC[C@H](C)[C@H](NC(=O)[C@@H]1CCCN1C(=O)CNC(=O)[C@H](Cc1ccccc1)NC(=O)[C@H](CC(N)=O)NC(=O)[C@H](CC(N)=O)NC(=O)[C@H](CO)NC(=O)[C@H](CO)NC(=O)[C@H](Cc1c[nH]cn1)NC(=O)[C@@H](NC(=O)[C@H](CC(C)C)NC(=O)[C@H](Cc1ccccc1)NC(=O)[C@H](CC(N)=O)NC(=O)[C@H](C)NC(=O)[C@H](CC(C)C)NC(=O)[C@H](CCCNC(=N)N)NC(=O)[C@H](CCC(N)=O)NC(=O)[C@@H](NC(=O)[C@H](C)NC(=O)[C@@H]1CSSC[C@H](NC(=O)[C@@H](N)CCCCN)C(=O)N[C@@H](CC(N)=O)C(=O)N[C@@H]([C@@H](C)O)C(=O)N[C@@H](C)C(=O)N[C@@H]([C@@H](C)O)C(=O)N1)[C@@H](C)O)C(C)C)C(=O)N[C@@H](CC(C)C)C(=O)N1CCC[C@H]1C(=O)N[C@@H](CO)C(=O)N[C@H](C(=O)N[C@@H](CC(N)=O)C(=O)N[C@H](C(=O)NCC(=O)N[C@@H](CO)C(=O)N[C@@H](CC(N)=O)C(=O)N[C@H](C(=O)N[C@@H](Cc1ccc(O)cc1)C(N)=O)[C@@H](C)O)C(C)C)[C@@H](C)O` [Example 8, ^25, 28Pro-h-Amylin], the IC50 came out at 0.026 nM.

In the case of `CC[C@H](C)[C@H](NC(=O)[C@H](C)NC(=O)CNC(=O)[C@H](Cc1ccccc1)NC(=O)[C@H](CC(N)=O)NC(=O)[C@H](CC(N)=O)NC(=O)[C@H](CO)NC(=O)[C@H](CO)NC(=O)[C@H](Cc1c[nH]cn1)NC(=O)[C@@H](NC(=O)[C@H](CC(C)C)NC(=O)[C@H](Cc1ccccc1)NC(=O)[C@H](CC(N)=O)NC(=O)[C@H](C)NC(=O)[C@H](CC(C)C)NC(=O)[C@H](CCCNC(=N)N)NC(=O)[C@H](CCC(N)=O)NC(=O)[C@@H](NC(=O)[C@H](C)NC(=O)[C@@H]1CSSC[C@H](NC(=O)[C@@H](N)CO)C(=O)N[C@@H](CC(N)=O)C(=O)N[C@@H]([C@@H](C)O)C(=O)N[C@@H](C)C(=O)N[C@@H]([C@@H](C)O)C(=O)N1)[C@@H](C)O)C(C)C)C(=O)N[C@@H](CC(C)C)C(=O)N[C@@H](CO)C(=O)N[C@@H](CO)C(=O)N[C@H](C(=O)N[C@@H](CC(N)=O)C(=O)N[C@H](C(=O)NCC(=O)N[C@@H](CO)C(=O)N[C@@H](CC(N)=O)C(=O)N[C@H](C(=O)N[C@@H](Cc1ccc(O)cc1)C(N)=O)[C@@H](C)O)C(C)C)[C@@H](C)O` [Example 6, ^1Ser-h-Amylin], the IC50 is 0.033 nM.

`CC[C@H](C)[C@H](NC(=O)[C@H](C)NC(=O)CNC(=O)[C@H](Cc1ccccc1)NC(=O)[C@H](CC(N)=O)NC(=O)[C@H](CC(N)=O)NC(=O)[C@H](CO)NC(=O)[C@H](CO)NC(=O)[C@H](Cc1c[nH]cn1)NC(=O)[C@@H](NC(=O)[C@H](CC(C)C)NC(=O)[C@H](Cc1ccccc1)NC(=O)[C@H](CC(N)=O)NC(=O)[C@H](C)NC(=O)[C@H](CC(C)C)NC(=O)[C@H](CCCNC(=N)N)NC(=O)[C@H](CCC(N)=O)NC(=O)[C@@H](NC(=O)[C@H](C)NC(=O)[C@@H]1CSSC[C@H](NC(=O)[C@@H](N)CCCCN)C(=O)N[C@@H](CC(N)=O)C(=O)N[C@@H]([C@@H](C)O)C(=O)N[C@@H](C)C(=O)N[C@@H]([C@@H](C)O)C(=O)N1)[C@@H](C)O)C(C)C)C(=O)N[C@@H](CC(C)C)C(=O)N[C@@H](CO)C(=O)N1CCC[C@H]1C(=O)N[C@H](C(=O)N[C@@H](CC(N)=O)C(=O)N[C@H](C(=O)NCC(=O)N[C@@H](CO)C(=O)N[C@@H](CC(N)=O)C(=O)N[C@H](C(=O)N[C@@H](Cc1ccc(O)cc1)C(N)=O)[C@@H](C)O)C(C)C)[C@@H](C)O` [Example 7, ^29Pro-h-Amylin]: the 50% inhibitory concentration (IC50) was found to be 0.064 nM.

`CC[C@H](C)[C@H](NC(=O)[C@@H]1CCCN1C(=O)CNC(=O)[C@H](Cc1ccccc1)NC(=O)[C@H](CC(N)=O)NC(=O)[C@H](CC(N)=O)NC(=O)[C@H](CO)NC(=O)[C@H](CO)NC(=O)[C@H](Cc1c[nH]cn1)NC(=O)[C@@H](NC(=O)[C@H](CC(C)C)NC(=O)[C@H](Cc1ccccc1)NC(=O)[C@H](CC(N)=O)NC(=O)[C@H](C)NC(=O)[C@H](CC(C)C)NC(=O)[C@H](CCCNC(=N)N)NC(=O)[C@H](CCC(N)=O)NC(=O)[C@@H](NC(=O)[C@H](C)NC(=O)[C@@H]1CSSC[C@H](N)C(=O)N[C@@H](CC(N)=O)C(=O)N[C@@H]([C@@H](C)O)C(=O)N[C@@H](C)C(=O)N[C@@H]([C@@H](C)O)C(=O)N1)[C@@H](C)O)C(C)C)C(=O)N[C@@H](CC(C)C)C(=O)N1CCC[C@H]1C(=O)N[C@@H](CO)C(=O)N[C@H](C(=O)N[C@@H](CC(N)=O)C(=O)N[C@H](C(=O)NCC(=O)N[C@@H](CO)C(=O)N[C@@H](CC(N)=O)C(=O)N[C@H](C(=O)N[C@@H](Cc1ccc(O)cc1)C(N)=O)[C@@H](C)O)C(C)C)[C@@H](C)O` [Example 9, des-^1Lys^25, 28Pro-h-Amylin] showed an IC50 of 0.085 nM.

Compound `CC[C@H](C)[C@H](NC(=O)[C@H](C)NC(=O)CNC(=O)[C@H](Cc1ccccc1)NC(=O)[C@H](CC(N)=O)NC(=O)[C@H](CC(N)=O)NC(=O)[C@H](CO)NC(=O)[C@H](CO)NC(=O)[C@H](Cc1c[nH]cn1)NC(=O)[C@@H](NC(=O)[C@H](CC(C)C)NC(=O)[C@H](Cc1ccccc1)NC(=O)[C@H](CC(N)=O)NC(=O)[C@H](C)NC(=O)[C@H](CC(C)C)NC(=O)[C@H](CCCNC(=N)N)NC(=O)[C@H](CCC(N)=O)NC(=O)[C@@H](NC(=O)[C@H](C)NC(=O)[C@@H]1CSSC[C@H](NC(=O)[C@@H](N)CCCCN)C(=O)N[C@@H](CC(N)=O)C(=O)N[C@@H]([C@@H](C)O)C(=O)N[C@@H](C)C(=O)N[C@@H]([C@@H](C)O)C(=O)N1)[C@@H](C)O)C(C)C)C(=O)N[C@@H](CC(C)C)C(=O)N1CCC[C@H]1C(=O)N[C@@H](CO)C(=O)N[C@H](C(=O)N[C@@H](CC(N)=O)C(=O)N[C@H](C(=O)NCC(=O)N[C@@H](CO)C(=O)N[C@@H](CC(N)=O)C(=O)N[C@H](C(=O)N[C@@H](Cc1ccc(O)cc1)C(N)=O)[C@@H](C)O)C(C)C)[C@@H](C)O` [Example 1, ^28Pro-human-Amylin] had an IC50 of 0.015 nM.

On to `CC[C@H](C)[C@H](NC(=O)[C@@H]1CCCN1C(=O)CNC(=O)[C@H](Cc1ccccc1)NC(=O)[C@H](CC(N)=O)NC(=O)[C@H](CC(N)=O)NC(=O)[C@H](CO)NC(=O)[C@H](CO)NC(=O)[C@H](CCCNC(=N)N)NC(=O)[C@@H](NC(=O)[C@H](CC(C)C)NC(=O)[C@H](Cc1ccccc1)NC(=O)[C@H](CC(N)=O)NC(=O)[C@H](C)NC(=O)[C@H](CC(C)C)NC(=O)[C@H](CCCNC(=N)N)NC(=O)[C@H](CCC(N)=O)NC(=O)[C@@H](NC(=O)[C@H](C)NC(=O)[C@@H]1CSSC[C@H](NC(=O)[C@@H](N)CCCCN)C(=O)N[C@@H](CC(N)=O)C(=O)N[C@@H]([C@@H](C)O)C(=O)N[C@@H](C)C(=O)N[C@@H]([C@@H](C)O)C(=O)N1)[C@@H](C)O)C(C)C)C(=O)N[C@@H](CC(C)C)C(=O)N1CCC[C@H]1C(=O)N1CCC[C@H]1C(=O)N[C@H](C(=O)N[C@@H](CC(N)=O)C(=O)N[C@H](C(=O)NCC(=O)N[C@@H](CO)C(=O)N[C@@H](CC(N)=O)C(=O)N[C@H](C(=O)N[C@@H](Cc1ccc(O)cc1)C(N)=O)[C@@H](C)O)C(C)C)[C@@H](C)O` [Example 12, ^18Arg^25, 28, 29Pro-h-Amylin], for which the IC50 was determined as 0.021 nM.
